Consider one compound from patent EP0971717B1, “CYTOTOXIC AMINO SUGAR AND RELATED SUGAR DERIVATIVES OF INDOLOPYRROLOCARBAZOLES” (Bristol-Myers Squibb Company, priority 1996, dated 1998).

By UniProt entry, the sequences of proteins in these tests, tags left out.
UniProt P11387, whole entry: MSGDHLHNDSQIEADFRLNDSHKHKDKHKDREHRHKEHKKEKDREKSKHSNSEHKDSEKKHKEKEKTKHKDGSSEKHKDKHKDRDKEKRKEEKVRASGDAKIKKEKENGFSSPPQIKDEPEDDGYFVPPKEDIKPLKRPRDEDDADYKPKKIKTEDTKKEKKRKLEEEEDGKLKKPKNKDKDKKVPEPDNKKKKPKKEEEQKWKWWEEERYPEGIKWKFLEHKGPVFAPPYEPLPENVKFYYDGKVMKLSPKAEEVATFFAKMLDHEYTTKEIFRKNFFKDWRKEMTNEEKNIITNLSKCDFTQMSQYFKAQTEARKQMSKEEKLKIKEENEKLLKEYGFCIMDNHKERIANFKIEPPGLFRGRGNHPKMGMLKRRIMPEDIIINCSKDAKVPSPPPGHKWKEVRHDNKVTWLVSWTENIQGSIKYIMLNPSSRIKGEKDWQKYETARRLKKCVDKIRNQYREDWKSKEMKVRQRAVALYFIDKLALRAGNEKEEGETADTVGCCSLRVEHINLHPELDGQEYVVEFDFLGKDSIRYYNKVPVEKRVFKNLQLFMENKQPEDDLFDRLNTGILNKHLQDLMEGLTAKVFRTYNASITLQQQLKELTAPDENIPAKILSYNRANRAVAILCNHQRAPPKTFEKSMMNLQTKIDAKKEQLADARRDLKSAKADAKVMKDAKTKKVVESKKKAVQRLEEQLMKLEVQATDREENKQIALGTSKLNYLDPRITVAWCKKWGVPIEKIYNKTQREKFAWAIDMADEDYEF

Assay [1] deals with purified human topoisomerase I (Homo sapiens, UniProt P11387). The assay is described as follows: Topoisomerase I mediated single strand break formation in DNA (in vitro). Conditions: PM2 DNA, 30 minutes at 37° C; median effective concentration for single strand DNA break formation. The protocol:
Samples dissolved in 100% DMSO as either […] or 10 mg/ml solutions, unless otherwise stated, were diluted in Tris-EDTA buffer. Marine bacteriophage PM2 DNA (Boehringer Mannheim) was also diluted in Tris-EDTA buffer to a concentration of 0.02 µg/µl. Different dilutions of compound being evaluated were mixed with diluted DNA and this mixture was added to 1000 unit (one unit of enzyme activity is defined as the amount capable of relaxing 100 ng of supercoiled DNA in approximately 30 minutes at 37°C) aliquots of purified human topoisomerase I (Topogen) in 2X reaction buffer to start the reaction. The compound - DNA - enzyme mixture was incubated for 30 minutes at 37° C before stopping the reaction with warm stop buffer containing sodium dodecyl sulfate and proteinase K (Sigma). These mixtures were allowed to incubate at 37° C for another 10 minutes, at which time the mixtures were removed from the waterbath and extracted with a 24:1 mixture of chloroform/isoamyl alcohol. […] Negatives of photographs of the irradiated gels were scanned with a densitometer and areas under the peaks were calculated in order to obtain percent single strand DNA break formation for each sample. […]

The test system of assay [2] is HCT116 human colon carcinoma cells. The assay is described as follows: In-vitro cell-based cytotoxicity, XTT assay. Conditions: 72 hrs incubation, absorbance at 450 nm. As to the method:
The proliferation inhibition activity against human colon cell line was measured as follows.
Cytotoxicity was assessed in HCT116 human colon carcinoma cells by XTT (2,3-bis(2-methoxy-4-nitro- 5-sulfophenyl)-5-[(phenylamino)carbonyl]-2H-tetrazolium hydroxide assay as described in the literature by Scudiero, DA, Shoemaker, RH, Paull, KD, Monks, A, Tierney, S, Nofziger, TH, Currens, MJ, Seniff, D, and Boyd, MR. Evaluation of a soluble tetrazolium/formazan assay for cell growth and drug sensitivity in culture using human and other tumor cell lines, was done according to the procedure described in Cancer Res. 48: 4827-4833, 1988. Cells were plated at 4000 cells/well in 96 well microtiter plates and 24 hrs later drugs were added and serial diluted. The cells were incubated at 37° C for 72 hrs at which time the tetrazolium dye, XTT, containing phenazine methosulfate was added. A dehydrogenase enzyme in live cells reduces the XTT to a form that absorbs light at […] which can be quantitated spectrophotometrically. The greater the absorbance the greater the number of live cells. The results are expressed as an IC50 which is the drug concentration required to inhibit cell proliferation (i.e. absorbance at 450 nm) to 50% of that of untreated control cells.
On the technique in general: Formazan colour is commonly taken as a measure of viable cells.

For the compound `[N-]=[N+]=NC[C@H]1O[C@@H](n2c3ccc(F)cc3c3c4c(c5c6cc(F)ccc6[nH]c5c32)C(=O)NC4=O)[C@H](O)[C@@H](O)[C@@H]1O`, the EC50 (as a rule, the concentration at which the effect is half-maximal) in assay [1] stood at 230 nM. Moreover, in assay [2], the IC50 (in general, the concentration that inhibits the measured activity by half) worked out at 170 nM.
